# Measured affinities in a library of Ab-95 light chain variants

All variants were tested on one target, the spike HR2 peptide PDVDLGDISGINAS (SARS-CoV-2).

Parent: Ab-95, a human scFv built as VH, a 15-residue (Gly4Ser)3 linker, VL. Only the CDRs of the light chain vary.
VH: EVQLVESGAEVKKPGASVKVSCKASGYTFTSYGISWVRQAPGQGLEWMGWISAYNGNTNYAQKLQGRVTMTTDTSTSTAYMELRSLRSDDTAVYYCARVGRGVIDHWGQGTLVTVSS
VL: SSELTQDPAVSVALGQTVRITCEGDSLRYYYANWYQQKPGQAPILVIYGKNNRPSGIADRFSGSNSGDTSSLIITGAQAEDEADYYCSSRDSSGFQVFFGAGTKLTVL

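In library AAYL52, one, two or three CDR residues were substituted; doubles and triples were drawn at random. The scFvs were displayed on barcoded MATa yeast, the peptide on MATalpha yeast. The frequency of each diploid, read from paired DNA barcodes, reflects how well the two displayed proteins bind. Each replicate has its own calibration line, from reference interactions of the BCL2 family. The assay was run in three technical replicates.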

Substitutions are numbered in sequence along the VL above, starting at 1 (not Kabat).
The read-out is the apparent dissociation constant on a log10 scale (nM): the lower, the stronger.
The mean shown is taken over the replicates in which the pair was detected.
"not detected" means that the variant was in the library but no mating with the target was seen in any replicate; the authors take this as a sign of poor binding, and no number exists.
For reference, the parent read 2.31 as the reference entry and 2.25 as a member of this library.
As a blank, each scFv also met three strains without target: over library AAYL52, 28% of these pairings were detected, typically at 3.91 and seldom below 2.90.

{"changes": "N33T S55P", "mean log10 Kd (nM)": "3.72", "seen in": "1/3"}
{"changes": "E23S R53E S88P", "mean log10 Kd (nM)": "3.78", "seen in": "2/3"}
{"changes": "N51H S55N S88D", "mean log10 Kd (nM)": "3.43", "seen in": "1/3"}
{"changes": "N33F N52P R53D", "mean log10 Kd (nM)": "4.03", "seen in": "2/3"}
{"changes": "R53K S89W D91H", "mean log10 Kd (nM)": "2.04", "seen in": "3/3"}
{"changes": "R28S D91R Q96S", "mean log10 Kd (nM)": "2.61", "seen in": "3/3"}
{"changes": "D25H Y31A N51P", "mean log10 Kd (nM)": "3.07", "seen in": "3/3"}
{"changes": "G49H V97Y", "mean log10 Kd (nM)": "3.86", "seen in": "1/3"}
{"changes": "R28S Y29M G49P", "mean log10 Kd (nM)": "3.88", "seen in": "3/3"}
{"changes": "A32Q S55P V97L", "mean log10 Kd (nM)": "5.32", "seen in": "2/3"}
{"changes": "D25Y P54V", "mean log10 Kd (nM)": "2.96", "seen in": "2/3"}
{"changes": "E23S L27K S93I", "mean log10 Kd (nM)": "4.44", "seen in": "3/3"}
{"changes": "L27T N33Y P54L", "mean log10 Kd (nM)": "4.31", "seen in": "1/3"}
{"changes": "S26A N52K R90S", "mean log10 Kd (nM)": "4.44", "seen in": "1/3"}
{"changes": "P54I S93F Q96I", "mean log10 Kd (nM)": "4.04", "seen in": "3/3"}
{"changes": "Y30A P54S S89K", "mean log10 Kd (nM)": "2.52", "seen in": "3/3"}
{"changes": "R53E P54F V97G", "mean log10 Kd (nM)": "3.43", "seen in": "3/3"}
{"changes": "N33R D91K S93W", "mean log10 Kd (nM)": "3.94", "seen in": "1/3"}
{"changes": "R28C N51P G94V", "mean log10 Kd (nM)": "not detected", "seen in": "0/3"}
{"changes": "L27T R28F S55K", "mean log10 Kd (nM)": "not detected", "seen in": "0/3"}
{"changes": "Y29T S89M F95S", "mean log10 Kd (nM)": "1.82", "seen in": "3/3"}
{"changes": "G49C S92H", "mean log10 Kd (nM)": "4.26", "seen in": "1/3"}
{"changes": "D25M S89G F98K", "mean log10 Kd (nM)": "not detected", "seen in": "0/3"}
{"changes": "E23K R53L", "mean log10 Kd (nM)": "1.93", "seen in": "3/3"}
{"changes": "Y29C S92R S93Y", "mean log10 Kd (nM)": "3.80", "seen in": "3/3"}
{"changes": "D25L R53T Q96K", "mean log10 Kd (nM)": "3.68", "seen in": "2/3"}
{"changes": "E23G D25P N52I", "mean log10 Kd (nM)": "2.07", "seen in": "3/3"}
{"changes": "S92I G94W Q96K", "mean log10 Kd (nM)": "not detected", "seen in": "0/3"}
{"changes": "R28H Y30W S55Y", "mean log10 Kd (nM)": "2.77", "seen in": "3/3"}
{"changes": "Y31Q D91S F98P", "mean log10 Kd (nM)": "1.97", "seen in": "3/3"}
{"changes": "S26N G49S N51L", "mean log10 Kd (nM)": "4.44", "seen in": "1/3"}
{"changes": "S26N N33W N52F", "mean log10 Kd (nM)": "2.27", "seen in": "3/3"}

For reference, 2 entries of the list once more:

{"changes": "R53K S89W D91H", "mean log10 Kd (nM)": "2.04", "seen in": "3/3"}
{"changes": "E23S R53E S88P", "mean log10 Kd (nM)": "3.78", "seen in": "2/3"}

Values reported by Engelhart et al. 2022, doi:10.1038/s41597-022-01779-4 (FLAb copy).